miR-21 reporter: raises the signal of a miR-21 reporter | HeLa miR-21 FLuc reporter, luciferase, 48 h | Potency, µM (doses to about 38.3 µM), for the others: at the highest dose reporter change, positive = more light | 340,000 tested, under 10 active | AID 2288; active = well fitted rising curve with a large enough effect; inconclusive = small, poorly fitted or top-dose-only effect; inactive = no such curve, though single readings can be large or run the other way;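 also: % of control where 0% means no effect; miR-21 action dims this reporter so a rising signal means less miR-21 action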
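Using DMEM plus 10% FBS, HeLa miR-21-FLuc cells are incubated with test compounds (final up to about 40uM) for 48 hours; firefly luciferase signal is then imaged following reagent-mediated lysis.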
Nrf2 inh: blocks Nrf2 signaling; Potency, µM (highest dose often 46 µM), for the others: at the highest dose activity change, negative = inhibition, most hits filed as inhibitors; 2.1% of 360,000 active; A549 ARE-Fluc reporter, luciferase luminescence, 18-24 h; further: potency means the concentration at half of the fitted maximal effect; on the % scale 0 is the no-effect control and ±100 the full control effect; nearly all actives have a fitted effect of over 60% in size
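Cells were seeded and rested 2 h, then exposed to compounds for 18-24 h. CellTiter-Fluor was read first as a viability measure. BugLite was added 15 min before the final luminescent read of ARE-luciferase activity in A549 cells.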
A549 tox: counter-screen for Nrf2 inhibitors: cytotoxicity in A549 cells | A549 ARE-Fluc cells, CellTiter-Fluor viability, 18-24 h | Potency, µM (top dose mostly 46 µM), for inactives: at the highest dose activity change, negative = cytotoxicity, usual class: inhibitors | 0.16% of 390,000 active | AID 504648; further: potency means the concentration at half of the fitted maximal effect; on the % scale 0 is the no-effect control and ±100 the full control effect
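A549 ARE-Fluc cells in 5% FBS OPTI-MEM, 5000 cells/well, rested 2 h then exposed to compounds in concentration-response for 18-24 h at 37 °C. Viability by CellTiter-Fluor fluorescence (Ex 405/Em 525) after 30 min; luciferase luminescence (BugLite, 15 min, RT) read afterwards.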
Mito fusion yeast: blocks mitochondrial division or promotes mitochondrial fusion. S. cerevisiae fusion-defective mutant growth rescue, CellTiterGlo 48 h. Potency, µM (series often up to 46.1 µM), for the others: at the top dose growth rescue (activation), hits mostly activators. 0.23% of 320,000 active; further: potency means the concentration at half of the fitted maximal effect; % of control where 0% means no effect; nearly all actives have a fitted effect of over 45% in size
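Yeast fusion mutant, YPEG (non-fermentable carbon), compound, 48 h at 37C non-permissive; CellTiterGlo added, 10 min RT, luminescence read. Rescued growth = division inhibition.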
Nrf2 activator: activates Nrf2 signaling; AID 624171; 0.31% of 410,000 active; Potency, µM (top dose mostly 46.1 µM), for inactives: top-dose activation, actives largely listed as activators; AREc32 ARE-luciferase reporter (MCF7-derived line), luminescence, 24 h; further: potency means the concentration at half of the fitted maximal effect; % of control where 0% means no effect; nearly all actives have a fitted effect of over 65% in size
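AREc32_Fluc, 1000 cells/well, OPTI-MEM + 5% FBS, o/n 37 deg C 5% CO2; 23 nL cpd by pin tool, 24 hr; Steady-Glo 30 min RT, luminescence.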
Starred values were filed as active, the others as inactive; ? = inconclusive; · = not tested or not shown. Only some compounds are listed: those with a hit (about 2.3% of all), similar ones and a draw of the others. Unless noted, the call rests on the fitted dose curve; in most records, active means well fitted curve in the direction sought with a large enough effect; inconclusive means small, poorly fitted or top-dose-only effect, or another doubt; inactive means no such curve, though single readings can be large; an effect the other way counts as inactive or inconclusive.

Keys: A = miR-21 reporter; B = Nrf2 inh; C = A549 tox; D = Mito fusion yeast; E = Nrf2 activator
O=C(/C=C/c1ccc(O)c(O)c1)c1ccccc1O
  A = -58%; B = -5%; C = ?; D = 4%; E = ?
O=C(C=Cc1ccccc1O)c1ccccc1O
  A = ·; B = 5%; C = -1%; D = ·; E = 14µM*
CCSc1ncnc2nc[nH]c12
  A = ·; B = -3%; C = -2%; D = ·; E = ·
CC1CCC2(CC1)NC(=O)N(CC(=O)Nc1cccc(S(=O)(=O)N3CCCCC3)c1)C2=O (stereo not drawn)
  A = ·; B = 18µM*; C = -2%; D = ·; E = -1%
CN1C(=O)N(CC(=O)Nc2cccc(S(=O)(=O)N(C)c3ccccc3)c2)C(=O)C12CCCCC2
  A = ·; B = -18%; C = -8%; D = -3%; E = 0%
CCC1CCC2(CC1)NC(=O)N(CC(=O)Nc1cccc(S(=O)(=O)N(C)c3ccccc3)c1)C2=O (stereo not drawn)
  A = ·; B = 16µM*; C = -1%; D = 0%; E = 2%
CC1CCC2(CC1)NC(=O)N(CC(=O)Nc1cccc(S(=O)(=O)N3CCOCC3)c1)C2=O (stereo not drawn)
  A = -22%; B = ?; C = -6%; D = 4%; E = 0%
O=C(Nc1ccc2snnc2c1)Nc1cccc2ccccc12
  A = ?; B = 16µM*; C = -24%; D = 2%; E = 1%
CC1CC=CC2C1C(=O)N(Cc1ccccc1)C2c1cccc([N+](=O)[O-])c1 (stereo not drawn)
  A = ·; B = -4%; C = -3%; D = ·; E = ·
CCc1ccc(NC(=O)c2cnn3c(C)cc(C)nc23)cc1
  A = ·; B = ?; C = 14%; D = ·; E = ·

(next part)
Keys: A = miR-21 reporter; B = Nrf2 inh; C = A549 tox; D = Mito fusion yeast; E = Nrf2 activator
CCc1cccc(C)c1NC(=O)CCCSc1nc2ccccc2s1
  A = 4%; B = ?; C = 0%; D = -8%; E = 3%
CCc1cccc(CC)c1NC(=O)C1SC(=Nc2ccccc2C)C(c2nc3ccccc3s2)=C1N (stereo not drawn)
  A = 12%; B = 15µM*; C = -22%; D = -3%; E = 1%
COC(=O)c1c(-c2cccs2)csc1NC(=O)c1ccc(C(C)C)cc1
  A = -1%; B = 4%; C = 9%; D = ·; E = 9%
Cc1cc(S(=O)(=O)Nc2cccc(-c3ccc(N4CCOCC4)nn3)c2)c(C)cc1Cl
  A = -8%; B = ·; C = -22%; D = ·; E = 0%
CCn1c(CN2CCC(C)CC2)nc2cc(NC(=O)COc3ccc(Cl)c(C)c3)ccc21
  A = ?; B = 15µM*; C = ?; D = ·; E = 1%
Cc1cccc(OCC(=O)Nc2ccc3c(c2)nc(CCN2CCC(C)CC2)n3C)c1
  A = -2%; B = -24%; C = ?; D = 5%; E = 13%
N#C/C(=C\c1ccc(O)c([N+](=O)[O-])c1)c1nc2ccccc2s1
  A = -8%; B = ?; C = 15µM*; D = 0%; E = 8%
COc1ccc(-c2csc(/C(C#N)=C\c3ccc(O)c([N+](=O)[O-])c3)n2)cc1OC
  A = -21%; B = -22%; C = -14%; D = -4%; E = 0%
COc1cc(/C=C(\C#N)c2nc3ccccc3s2)cc([N+](=O)[O-])c1O
  A = -5%; B = ?; C = 21µM*; D = 1%; E = 1%
COc1ccc(-c2csc(/C(C#N)=C\c3ccc(OC)c([N+](=O)[O-])c3)n2)cc1
  A = -2%; B = -23%; C = 11%; D = 0%; E = -1%

Four compounds already listed, arranged by SMILES length, smallest number first.
Keys: A = miR-21 reporter; B = Nrf2 inh; C = A549 tox; D = Mito fusion yeast; E = Nrf2 activator
COC(=O)c1c(-c2cccs2)csc1NC(=O)c1ccc(C(C)C)cc1
  A = -1%; B = 4%; C = 9%; D = ·; E = 9%
Cc1cccc(OCC(=O)Nc2ccc3c(c2)nc(CCN2CCC(C)CC2)n3C)c1
  A = -2%; B = -24%; C = ?; D = 5%; E = 13%
CCn1c(CN2CCC(C)CC2)nc2cc(NC(=O)COc3ccc(Cl)c(C)c3)ccc21
  A = ?; B = 15µM*; C = ?; D = ·; E = 1%
COc1ccc(-c2csc(/C(C#N)=C\c3ccc(OC)c([N+](=O)[O-])c3)n2)cc1
  A = -2%; B = -23%; C = 11%; D = 0%; E = -1%

Remaining list, next part.
Keys: A = miR-21 reporter; B = Nrf2 inh; C = A549 tox; D = Mito fusion yeast; E = Nrf2 activator
Clc1ccsc1-c1ccc2ccccc2n1
  A = -37%; B = ?; C = -3%; D = 1%; E = 10µM*
Clc1ccc(-c2ccnc(-n3cccc3)n2)s1
  A = -6%; B = 21%; C = 4%; D = -3%; E = ?
c1coc(-c2ccnc(-n3cccc3)n2)c1
  A = -3%; B = ?; C = 2%; D = -2%; E = ?
Clc1ccsc1-c1ccnc(-n2cccc2)n1
  A = -26%; B = ?; C = 8%; D = -5%; E = 10µM*
Cc1ccsc1-c1ccnc(-n2cccc2)n1
  A = -8%; B = ?; C = 9%; D = -1%; E = 5µM*
COc1ccccc1Cc1nc2ccccc2nc1SCC(=O)Nc1ccccc1C(F)(F)F
  A = -1%; B = ·; C = 0%; D = ·; E = 0%
COC(=O)c1cnc(N2CCN(c3ccc(OC)cc3)CC2)c2ccccc12
  A = -8%; B = ·; C = -16%; D = ·; E = 2%
O=C(NNC(=O)c1ccccc1-c1ccccc1C(=O)O)c1ccccc1
  A = -1%; B = 6%; C = -11%; D = 3%; E = 0%
O=C(C=P(c1ccccc1)(c1ccccc1)c1ccccc1)c1ccccc1-c1ccccc1C(=O)C=P(c1ccccc1)(c1ccccc1)c1ccccc1
  A = ·; B = 2.1µM*; C = 4.6µM*; D = ·; E = 0%
Cc1ccc(C2NC(c3ccc4c(c3)OCO4)=CC(c3cc(Br)ccc3O)N2)cc1 (stereo not drawn)
  A = ·; B = 13%; C = 1%; D = ·; E = ·

Further entries follow.
Keys: A = miR-21 reporter; B = Nrf2 inh; C = A549 tox; D = Mito fusion yeast; E = Nrf2 activator
COc1ccc(OC2C(=O)N(Cc3ccc4c(c3)OCO4)C2c2cccs2)cc1 (stereo not drawn)
  A = 27%; B = 13µM*; C = -26%; D = 11%; E = 2%
CCNc1nc(C#N)nc2c1ncn2-c1cccc(Cl)c1
  A = ·; B = ?; C = -15%; D = ·; E = ·
COc1cc(NC(=O)Nc2ccc3c(c2)OCO3)cc(OC)c1OC
  A = -12%; B = 7%; C = -2%; D = 1%; E = 4%
COc1ccc(C(C)(C)C)cc1NC(=O)Nc1ccc2c(c1)OCO2
  A = 7%; B = 23µM*; C = ?; D = 12%; E = -1%
COc1ccc(CNC(=O)C2CCN(C(=O)c3ccc(-n4ccc5ccccc54)s3)CC2)cc1
  A = 7%; B = 21µM*; C = -25%; D = ·; E = 3%
C=C1C(=O)O[C@@]23[C@H]1CC[C@@H](C)[C@@H]2CC[C@@]1(C)O[C@@H]31
  A = ·; B = 15µM*; C = ?; D = ·; E = -3%
COc1ccc(C(=O)NC(Nc2ccc(C)cc2)C(Cl)(Cl)Cl)cc1 (stereo not drawn)
  A = 11%; B = 21µM*; C = ?; D = -2%; E = 4%
Cc1ccc(/C=C/C(=O)N2CCc3ccccc32)o1
  A = -63%; B = ?; C = 0%; D = 10%; E = 11µM*
Cc1cc(C)cc(Cn2ncc3c4sc(C)cc4n(C)c3c2=O)c1
  A = ·; B = 4%; C = -11%; D = ·; E = ·
COc1ccc(-c2cc(C3CCN(c4ccc(C(C)=O)cc4[N+](=O)[O-])CC3)[nH]n2)cc1
  A = 26%; B = 16µM*; C = ?; D = -19%; E = -1%

(list continues)
Keys: A = miR-21 reporter; B = Nrf2 inh; C = A549 tox; D = Mito fusion yeast; E = Nrf2 activator
COc1cc(NC(=O)COc2cccc3c2OC(C)(C)C3)cc(OC)c1OC
  A = ·; B = 10µM*; C = -13%; D = 3%; E = 0%
NC(=O)c1sc2nc3c(c(-c4ccco4)c2c1N)CCC3
  A = 15%; B = 5.8µM*; C = 5%; D = 0%; E = -1%
COc1ccc(SCC(Cc2ccccc2)N2CCN(CC(C)C)CCC2=O)cc1 (stereo not drawn)
  A = ·; B = 15%; C = -18%; D = ·; E = ·
Cc1ccc(-n2c(=O)c3cccnc3n2CC(=O)Nc2ccc(Br)cc2)cc1C
  A = -20%; B = -17%; C = -8%; D = ·; E = 3%
CC(C)(C)c1ccc(NC(=O)C2CCCN(c3cnccn3)C2)cc1 (stereo not drawn)
  A = ?; B = 7%; C = 0%; D = 13µM*; E = -1%
CCN(CC)c1ccc(NC(=O)CCS(=O)(=O)c2cc3c(cc2Cl)NC(=O)CO3)c(C)c1
  A = 16%; B = 16µM*; C = ?; D = ·; E = -2%
O=C(CSc1nccn1Cc1ccc(Cl)cc1)Nc1ccc2c(c1)OCO2
  A = -1%; B = ·; C = 6%; D = ·; E = -1%
CC(=O)Oc1ccc(C(=O)COC(=O)CNC(=O)COc2ccccc2C)cc1
  A = ·; B = 4%; C = 1%; D = ·; E = ·
CC(=O)c1sc(NC(=O)CCS(=O)(=O)c2ccc(C)cc2)nc1C
  A = ·; B = -25%; C = ?; D = 1%; E = 22µM*
O=C(CCS(=O)(=O)c1ccccc1)Nc1nnc(C(F)(F)F)s1
  A = ?; B = -24%; C = ?; D = -23%; E = ?

Source: PubChem BioAssay
